Where “and” joins values, the source holds several entries; their conditions need not be identical. Equal entries are not always repeated.
Target: cAMP and cAMP-inhibited cGMP 3',5'-cyclic phosphodiesterase 10A (Homo sapiens, UniProt Q9Y233)
Experiment: Inhibition of human recombinant PDE10A expressed in baculovirus-SF21 cell system assessed as hydrolysis of [3H]cAMP after 1 hr by liquid scintillation counting
Summary of the method: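 Human recombinant PDE10A expressed in baculovirus-infected Sf21 cells; cytosolic supernatant taken after sonication and 48000g spin. Assay in 50 mM Tris-HCl/5 mM MgCl2, pH 7.4, with 0.1 μM [3H]cAMP at 37 °C for 30 min. Stopped with Ysi-SPA beads and counted by scintillation 1 h later. Nonspecific activity measured without enzyme.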

The chains behind the UniProt entries cited, without tags or fusion partners. Where a name states a change or a piece, a line headed by the entry shows the natural chain unless it says otherwise.
UniProt Q9Y233: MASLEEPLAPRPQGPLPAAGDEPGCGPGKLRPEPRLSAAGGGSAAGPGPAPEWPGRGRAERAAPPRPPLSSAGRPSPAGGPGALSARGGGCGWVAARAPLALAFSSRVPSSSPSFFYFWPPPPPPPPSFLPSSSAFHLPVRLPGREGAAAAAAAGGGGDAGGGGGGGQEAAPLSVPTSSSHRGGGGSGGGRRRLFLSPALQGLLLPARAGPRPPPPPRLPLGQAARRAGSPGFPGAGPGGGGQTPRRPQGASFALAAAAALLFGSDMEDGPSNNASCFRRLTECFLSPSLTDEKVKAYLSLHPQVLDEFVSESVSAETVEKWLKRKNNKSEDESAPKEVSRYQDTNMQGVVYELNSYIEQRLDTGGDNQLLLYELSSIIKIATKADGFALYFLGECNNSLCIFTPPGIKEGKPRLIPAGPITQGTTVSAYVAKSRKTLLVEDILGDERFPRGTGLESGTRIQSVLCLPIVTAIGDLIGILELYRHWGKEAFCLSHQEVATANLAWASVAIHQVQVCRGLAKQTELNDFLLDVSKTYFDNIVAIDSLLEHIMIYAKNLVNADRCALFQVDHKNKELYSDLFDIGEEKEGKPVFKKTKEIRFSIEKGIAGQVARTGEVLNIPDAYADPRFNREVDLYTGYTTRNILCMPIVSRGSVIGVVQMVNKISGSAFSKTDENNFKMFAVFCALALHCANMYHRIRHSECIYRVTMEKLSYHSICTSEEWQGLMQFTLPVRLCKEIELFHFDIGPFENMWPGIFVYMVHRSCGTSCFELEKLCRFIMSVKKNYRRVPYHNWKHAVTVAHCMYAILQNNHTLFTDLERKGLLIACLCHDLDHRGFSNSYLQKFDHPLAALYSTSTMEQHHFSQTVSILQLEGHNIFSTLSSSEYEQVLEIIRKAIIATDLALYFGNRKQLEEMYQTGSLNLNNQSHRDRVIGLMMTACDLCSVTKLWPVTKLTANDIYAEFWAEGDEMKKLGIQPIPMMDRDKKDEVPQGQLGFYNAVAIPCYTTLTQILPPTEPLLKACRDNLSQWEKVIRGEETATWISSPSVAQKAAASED

For `COc1ccc(Cc2nccc3cc(OC)c(OC)cc23)cc1OC` [PAPAVERINE], the IC50 was 56.9 nM and 76 nM.
